System: C. elegans strain N2
Experiment: C. elegans L4 larvae motility (thrashing) in M9 buffer
Assay type: in vivo, Caenorhabditis elegans

How did the “Duration of decreased motility” value turn out when `Cl.N#Cc1ccc2c(c1)CCN(CC[C@H]1CC[C@H](NC(=O)c3ccnc4ccccc34)CC1)C2.O` [SB-277011-A, SB-277011-A hydrochloride hydrate] was run?
The value was “about 10 min”.
